For the assay, the target named is human α7 nAChR (Homo sapiens, UniProt P36544). Nature of the assay: FlexStation-Ca2+ influx assay, human α7 nAChR activity. In kind it is cell-based. The settings on record: read-out: EC50 of human α7nAChR; HEK293T/17 cells transfected with human α7 nAChR; PNU-120596 added; relative to epibatidine 1 μM positive control.

The chains behind the UniProt entries cited, without tags or fusion partners. Residues count along the entry.
UniProt P36544, 23-502 limits assumed: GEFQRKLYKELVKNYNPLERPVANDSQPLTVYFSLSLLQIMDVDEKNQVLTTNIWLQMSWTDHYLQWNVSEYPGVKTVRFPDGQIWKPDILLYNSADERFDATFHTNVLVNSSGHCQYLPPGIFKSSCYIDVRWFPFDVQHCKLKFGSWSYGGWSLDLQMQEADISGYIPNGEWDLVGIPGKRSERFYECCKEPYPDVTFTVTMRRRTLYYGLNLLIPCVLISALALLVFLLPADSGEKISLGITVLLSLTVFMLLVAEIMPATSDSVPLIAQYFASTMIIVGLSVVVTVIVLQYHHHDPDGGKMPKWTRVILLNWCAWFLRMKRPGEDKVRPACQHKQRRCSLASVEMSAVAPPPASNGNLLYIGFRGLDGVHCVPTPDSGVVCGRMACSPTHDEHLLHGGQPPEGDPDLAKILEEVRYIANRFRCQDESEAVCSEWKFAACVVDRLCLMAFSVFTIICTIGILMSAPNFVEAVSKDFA

Structures are written as SMILES. Some results are limits rather than exact numbers.

The EC50 is the concentration needed to bring the measured effect to its halfway point. As for `O=C(OC1CN2CCC1CC2)c1ccc(=O)n(-c2ccccc2)c1` (stereo not shown), the EC50 is greater than 1000 nM.

The values are drawn from patent US8716309B2, “Pharmaceutical composition comprising pyridone derivatives” (priority 2011, dated 2014).
